Results published in PMC11284802 (Journal of Medicinal Chemistry, 2024).

Assay: 5-h mouse PK study
Type: in vivo, CD-1 mice
Settings: 10 mg/kg p.o., data not shown

- oral bioavailability: no bioavailability
SMILES: CCN(CCN)c1ccc(Nc2cc(NC3CC3)n3ncc(C#N)c3n2)cc1-n1cnnc1 [Compound 53, 5-((4-((2-Aminoethyl)(ethyl)amino)-3-(4H-1,2,4-triazol-4-yl)phenyl)amino)-7-(cyclopropylamino)pyrazolo[1,5-a]pyrimidine-3-carbonitrile]
